Drawing on patent publication US11472832B2, “Withanolides useful for the treatment of neurodegenerative diseases” (priority 2013, dated 2022), this text covers LD50 previously reported and LD50 for 1 compound.

For one data set, the system named is C57BL/6 female mice. The note with it: Patwardhan et al. 2006; cited from earlier work.
A short description of another data set: in vivo. The conditions noted are these: female, C57BL/6, mouse, ip.

Consider `CC1=C(CO)C(=O)O[C@@H]([C@@H](C)[C@H]2CC[C@H]3[C@@H]4C[C@H]5O[C@]56[C@@H](O)C=CC(=O)[C@]6(C)[C@H]4CC[C@]23C)C1` [WA, Withaferin A, reference compound], for which the LD50 previously reported in the data set on C57BL/6 female mice is 54 mg/kg. This compound displayed a median lethal dose (LD50) at 24 h in the data set “in vivo” of 55 mg/kg.
